This note sets out measurements from ChEMBL document CHEMBL4028801, “A multifactorial approach to hepatobiliary transporter assessment enables improved therapeutic compound development” (Toxicol Sci, 2013).

Protein sequences, listed by entry. Tags and fused reporters are not part of them. Lines headed by an entry give the natural chain unless they say otherwise; changes in a name come on top.
UniProt O15438: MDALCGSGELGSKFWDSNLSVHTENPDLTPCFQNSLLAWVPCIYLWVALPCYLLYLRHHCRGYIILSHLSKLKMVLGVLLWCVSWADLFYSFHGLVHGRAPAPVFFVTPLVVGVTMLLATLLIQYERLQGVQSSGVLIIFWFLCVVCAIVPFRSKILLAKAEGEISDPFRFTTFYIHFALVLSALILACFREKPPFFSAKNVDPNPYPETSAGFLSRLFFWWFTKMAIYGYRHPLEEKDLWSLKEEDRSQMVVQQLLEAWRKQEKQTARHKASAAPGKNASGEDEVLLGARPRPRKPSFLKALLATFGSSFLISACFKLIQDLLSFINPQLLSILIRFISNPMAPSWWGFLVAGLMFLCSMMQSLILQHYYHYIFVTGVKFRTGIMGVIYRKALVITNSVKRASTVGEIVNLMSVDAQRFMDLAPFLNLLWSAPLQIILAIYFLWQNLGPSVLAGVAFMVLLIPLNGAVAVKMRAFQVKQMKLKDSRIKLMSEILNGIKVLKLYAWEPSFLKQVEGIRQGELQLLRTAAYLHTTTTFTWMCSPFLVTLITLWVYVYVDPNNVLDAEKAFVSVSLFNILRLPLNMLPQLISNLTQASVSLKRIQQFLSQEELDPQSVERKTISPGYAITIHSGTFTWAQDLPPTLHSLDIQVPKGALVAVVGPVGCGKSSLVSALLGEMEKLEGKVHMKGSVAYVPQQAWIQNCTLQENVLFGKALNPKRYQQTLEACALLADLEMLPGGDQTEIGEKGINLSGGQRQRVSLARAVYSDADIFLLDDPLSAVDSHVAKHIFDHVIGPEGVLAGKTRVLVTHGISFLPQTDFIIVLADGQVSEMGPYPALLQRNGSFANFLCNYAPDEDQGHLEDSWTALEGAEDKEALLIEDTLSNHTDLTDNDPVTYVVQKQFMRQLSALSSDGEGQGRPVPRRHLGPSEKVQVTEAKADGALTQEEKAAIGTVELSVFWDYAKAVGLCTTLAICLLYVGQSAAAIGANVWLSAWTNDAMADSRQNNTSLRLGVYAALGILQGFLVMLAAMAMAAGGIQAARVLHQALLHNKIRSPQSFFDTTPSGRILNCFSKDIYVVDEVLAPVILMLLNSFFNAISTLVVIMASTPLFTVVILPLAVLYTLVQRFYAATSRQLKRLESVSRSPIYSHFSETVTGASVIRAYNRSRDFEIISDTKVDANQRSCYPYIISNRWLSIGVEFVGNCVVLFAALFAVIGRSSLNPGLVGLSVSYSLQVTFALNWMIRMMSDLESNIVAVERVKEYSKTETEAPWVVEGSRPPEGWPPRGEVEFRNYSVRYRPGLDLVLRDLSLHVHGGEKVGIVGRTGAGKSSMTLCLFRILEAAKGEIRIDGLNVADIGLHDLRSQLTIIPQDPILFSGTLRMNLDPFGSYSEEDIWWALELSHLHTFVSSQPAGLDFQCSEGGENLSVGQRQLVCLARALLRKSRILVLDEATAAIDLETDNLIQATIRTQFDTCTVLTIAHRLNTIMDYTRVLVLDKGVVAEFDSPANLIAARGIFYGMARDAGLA

Usually IC50 stands for the concentration at which inhibition is half-maximal.

The test concerns the target ATP-binding cassette sub-family C member 3 (Homo sapiens, UniProt O15438). It counts as ADME, cell-based.

On to BIVALIRUDIN, for which the 50% inhibitory concentration (IC50) is more than 133 µM.
